Measured values published in publication PMC12738692, “Identification, characterization, and structure-activity relationship of the ASIC3-selective peptide WRPRFa” (Communications Chemistry, 2025).

Target: ASIC313 concatemeric heterotrimer (ASIC3-ASIC1a-ASIC3 in tandem) (human) (UniProt Q9UHC3)

WRPRFa (peptide) was tested, and the EC50 of I3s/Ipk, escalating WRPRFa before pH 6.3, manual patch clamp, CHO cells was > 12.6 µM.
